Measured values as given in patent US20140303084A1 (Biogen, published 2014).

Amino acid sequences for entries named in this document (tags omitted). Residues count along the entry.
UniProt P16294, 47-471 limits assumed: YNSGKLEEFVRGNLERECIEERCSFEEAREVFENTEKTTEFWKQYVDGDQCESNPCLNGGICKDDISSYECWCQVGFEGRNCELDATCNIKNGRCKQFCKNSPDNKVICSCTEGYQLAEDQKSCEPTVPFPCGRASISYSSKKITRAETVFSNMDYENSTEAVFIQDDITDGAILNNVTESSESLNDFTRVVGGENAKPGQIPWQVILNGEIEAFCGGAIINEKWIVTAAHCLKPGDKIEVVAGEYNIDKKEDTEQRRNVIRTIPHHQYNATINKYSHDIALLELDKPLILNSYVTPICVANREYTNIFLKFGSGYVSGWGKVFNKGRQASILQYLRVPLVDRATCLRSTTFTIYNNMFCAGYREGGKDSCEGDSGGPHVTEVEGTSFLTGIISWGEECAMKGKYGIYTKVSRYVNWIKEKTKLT

Experiments:
human Factor IXa = human Factor IXa (human, UniProt P00740 47-191; P00740 227-461); experiment: cell-based or functional assay
mouse FIXa = mouse FIXa (mouse, UniProt P16294 47-471, limits assumed); experiment: cell-based or functional assay

Row | EC50 (µM), FXa generation assay, with phospholipids (human Factor IXa) [µM] | EC50, FXa generation assay with mouse FIXa (mouse FIXa) [nM] | EC50 (µM), FXa generation assay, without phospholipids (human Factor IXa) [µM] | Binder
1 | 0.49 | 440 | – | KLTCLASYCWLF (C-terminal amide) [compound 1]
2 | 0.23 | – | – | KLTCLASYCWLF (D-Lys at 1; N-methyl-Leu at 2; C-terminal amide) [compound 2]
3 | 0.125 | – | 0.115 | RRAPGKLQCLASYCWLFWTGIA (C-terminal amide) [compound 3]
